The term IC50 denotes the concentration at which inhibition is half-maximal. A higher IC50 goes with weaker potency.

Amino acid sequences for entries named in this document (tags omitted).
UniProt P35222, whole entry: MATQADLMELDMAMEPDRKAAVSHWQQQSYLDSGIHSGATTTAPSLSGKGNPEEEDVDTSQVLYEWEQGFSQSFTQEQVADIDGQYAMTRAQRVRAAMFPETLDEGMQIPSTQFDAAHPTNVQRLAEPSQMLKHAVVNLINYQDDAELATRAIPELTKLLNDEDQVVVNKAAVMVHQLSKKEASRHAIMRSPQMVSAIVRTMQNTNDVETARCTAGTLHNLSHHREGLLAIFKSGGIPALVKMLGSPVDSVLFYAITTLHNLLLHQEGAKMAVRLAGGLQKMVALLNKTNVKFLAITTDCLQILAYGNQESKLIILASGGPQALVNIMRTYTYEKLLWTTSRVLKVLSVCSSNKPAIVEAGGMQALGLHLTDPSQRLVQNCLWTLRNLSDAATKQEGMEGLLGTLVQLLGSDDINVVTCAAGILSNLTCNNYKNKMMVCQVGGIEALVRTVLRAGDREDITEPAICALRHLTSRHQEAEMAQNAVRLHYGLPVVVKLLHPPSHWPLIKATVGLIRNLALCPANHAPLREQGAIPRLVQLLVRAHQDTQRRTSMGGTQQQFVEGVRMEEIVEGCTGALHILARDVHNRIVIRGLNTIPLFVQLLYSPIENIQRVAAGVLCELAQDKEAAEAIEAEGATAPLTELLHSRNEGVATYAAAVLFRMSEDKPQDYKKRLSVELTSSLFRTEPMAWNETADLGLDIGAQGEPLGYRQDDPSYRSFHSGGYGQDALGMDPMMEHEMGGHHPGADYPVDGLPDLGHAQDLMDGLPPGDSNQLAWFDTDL

In US20240360179A1, “STAPLED PEPTIDES AND METHODS THEREOF” (FOG PHARMACEUTICALS, INC., priority 2021, published 2024) one finds IC50 data, which are given here for 13 compounds.

The target in test [1] is beta-catenin/TCF4 interaction (Homo sapiens, UniProt P35222). Kind of test: cell-based. The following applies: NanoBRET Abs IC50 (uM), absolute IC50. Further details: host or cells: HEK293. For orientation: In BRET a luciferase serves as donor, and the signal depends on an acceptor being close.
For test [2], the target named is T1, full-length B-Catenin (Uniprot ID P35222) (Homo sapiens, UniProt P35222).
T1 construct: 10 nM full-length B-Catenin (Uniprot ID P35222)
Description: biochemical. Type of test: binding. The note with it: beta-Catenin FP IC50 (nM), competition fluorescence polarization. On the technique in general: In fluorescence polarisation assays a small probe gives low polarisation when free and higher when bound to something large.

Take `CC(=O)N1CCC[C@]12CC=CCCCC1(CCCC=CCCCOC(=O)N3CC[C@@]4(C3)NC(=O)[C@H](CCCCNC(=O)CC[C@@H](C(=O)N[C@@H](CC(C)C)C(=O)N[C@@H](CC(=O)O)C(=O)N[C@@H](C)C(N)=O)NC(=O)[C@H](Cc3csc5ccccc35)NC(=O)[C@H](Cc3ccsc3)NC4=O)NC(=O)[C@H](Cc3ccccc3)NC(=O)[C@H](C)NC(=O)C(C)(C)NC(=O)[C@H](Cc3cccc(C(=O)O)c3)NC(=O)[C@H](CC(=O)O)NC1=O)NC(=O)[C@H](CC(C)(C)C)NC(=O)[C@H](CC(=O)O)NC2=O` (relative stereo) [I-493, Ac-PL3-Asp-Npg-B5-Asp-3COOHF-Aib-Ala-Phe-Lys*3-PyrS2-3Thi-BztA-GlnR*3-Leu-Asp-Ala-NH2]: the results for the IC50 in test [1] and in test [2] were 3 to 10 µM and under 50 nM, respectively.

With `CC(=O)N1CCC[C@]12CC=CCCCC1(CCCC=CCCCOC(=O)N3CC[C@@]4(C3)NC(=O)[C@H](CCCCNC(=O)CC[C@@H](C(=O)N[C@H](C(=O)N[C@@H](CC(=O)O)C(=O)N[C@@H](C)C(N)=O)C(C)C)NC(=O)[C@H](Cc3csc5ccccc35)NC(=O)[C@H](Cc3ccsc3)NC4=O)NC(=O)[C@H](Cc3ccccc3)NC(=O)[C@H](C)NC(=O)C(C)(C)NC(=O)[C@H](Cc3cccc(C(=O)O)c3)NC(=O)[C@H](CC(=O)O)NC1=O)NC(=O)[C@H](CC(C)(C)C)NC(=O)[C@H](CC(=O)O)NC2=O` (relative stereo) [I-506, Ac-PL3-Asp-Npg-B5-Asp-3COOHF-Aib-Ala-Phe-Lys*3-PyrS2-3Thi-BztA-GlnR*3-Val-Asp-Ala-NH2], the IC50 in test [1] was 3 to 10 µM; in test [2] it was under 50 nM.

As for `CC(=O)N1CCC[C@]12CC=CCCCC1(CCCC=CCCCOC(=O)N3CC[C@@]4(C3)NC(=O)[C@H](CCCCNC(=O)CC[C@@H](C(=O)N[C@H](C(=O)N[C@@H](CCC(=O)O)C(=O)N[C@@H](C)C(N)=O)C(C)C)NC(=O)[C@H](Cc3csc5ccccc35)NC(=O)[C@H](Cc3ccsc3)NC4=O)NC(=O)[C@H](Cc3ccccc3)NC(=O)[C@H](C)NC(=O)C(C)(C)NC(=O)[C@H](Cc3cccc(C(=O)O)c3)NC(=O)[C@H](CC(=O)O)NC1=O)NC(=O)[C@H](CC(C)(C)C)NC(=O)[C@H](CC(=O)O)NC2=O` (relative stereo) [I-507, Ac-PL3-Asp-Npg-B5-Asp-3COOHF-Aib-Ala-Phe-Lys*3-PyrS2-3Thi-BztA-GlnR*3-Val-Glu-Ala-NH2], the values for the IC50 in test [1] and in test [2] were 1.5 to 3 µM and under 50 nM, respectively.

As for `C[C@H](NC(=O)[C@@H]1CCC(=O)NCCCC[C@@H]2NC(=O)[C@H](Cc3ccccc3)NC(=O)[C@H](C)NC(=O)C(C)(C)NC(=O)[C@H](Cc3cccc(C(=O)O)c3)NC(=O)[C@H](CC(=O)O)NC(=O)[C@](C)(NC(=O)[C@@H]3CN(Cc4ccccc4)CC=CCCCC(=O)N4CCC[C@@]4(C)C(=O)N[C@@H](CC(=O)O)C(=O)N3)CCCC=CCCCOC(=O)N3CC[C@@](C3)(NC2=O)C(=O)N[C@@H](Cc2ccsc2)C(=O)N[C@@H](Cc2csc3ccccc23)C(=O)N1)C(N)=O` (relative stereo) [I-519, 5hexenyl-MePro-Asp-[Bn][Allyl]Dap-R5-Asp-3COOHF-Aib-Ala-Phe-Lys*3-PyrS2-3Thi-BztA-GlnR*3-Ala-NH2], the IC50 is over 10 µM in test [1] and under 50 nM in test [2].

Regarding `C[C@H](NC(=O)[C@@H]1CCC(=O)NCCCC[C@@H]2NC(=O)[C@H](Cc3ccccc3)NC(=O)[C@H](C)NC(=O)C(C)(C)NC(=O)[C@H](Cc3cccc(C(=O)O)c3)NC(=O)[C@H](CC(=O)O)NC(=O)[C@](C)(NC(=O)[C@@H]3CN(C(=O)c4ccccc4)CC=CCCCC(=O)N4CCC[C@@]4(C)C(=O)N[C@@H](CC(=O)O)C(=O)N3)CCCC=CCCCOC(=O)N3CC[C@@](C3)(NC2=O)C(=O)N[C@@H](Cc2ccsc2)C(=O)N[C@@H](Cc2csc3ccccc23)C(=O)N1)C(N)=O` (relative stereo) [I-520, 5hexenyl-MePro-Asp-[Phc][Allyl]Dap-R5-Asp-3COOHF-Aib-Ala-Phe-Lys*3-PyrS2-3Thi-BztA-GlnR*3-Ala-NH2], the IC50 is over 10 µM in test [1] and under 50 nM in test [2].

For `CC(=O)N1CCC[C@]12CC=CCCCC1(CCCC=CCCCOC(=O)N3CC[C@@]4(C3)NC(=O)[C@H](CCCCNC(=O)CC[C@@H](C(=O)N[C@@H](C)C(N)=O)NC(=O)[C@H](Cc3csc5ccccc35)NC(=O)[C@H](Cc3ccsc3)NC4=O)NC(=O)[C@H](Cc3ccccc3)NC(=O)[C@H](C)NC(=O)C(C)(C)NC(=O)[C@H](Cc3cccc(C(=O)O)c3)NC(=O)[C@H](CCC(=O)O)NC1=O)NC(=O)[C@H](CC(C)(C)C)NC(=O)[C@H](CC(=O)O)NC2=O` (relative stereo) [I-547, Ac-PL3-Asp-Npg-B5-Glu-3COOHF-Aib-Ala-Phe-Lys*3-PyrS2-3Thi-BztA-GlnR*3-Ala-NH2], the IC50 in test [1] is over 10 µM; in test [2], under 50 nM.

Turning to `CC(=O)N1CCC[C@]12CC=CCCCC1(CCCC=CCCCOC(=O)N3CC[C@@]4(C3)NC(=O)[C@H](CCCCNC(=O)CC[C@@H](C(=O)N[C@@H](C)C(N)=O)NC(=O)[C@H](Cc3csc5ccccc35)NC(=O)[C@H](Cc3ccsc3)NC4=O)NC(=O)[C@H](Cc3ccccc3)NC(=O)[C@H](C)NC(=O)C(C)(C)NC(=O)[C@H](Cc3cccc(C(=O)O)c3)NC(=O)[C@H](CCCC(=O)O)NC1=O)NC(=O)[C@H](CC(C)(C)C)NC(=O)[C@H](CC(=O)O)NC2=O` (relative stereo) [I-548, Ac-PL3-Asp-Npg-B5-Aad-3COOHF-Aib-Ala-Phe-Lys*3-PyrS2-3Thi-BztA-GlnR*3-Ala-NH2], the IC50 in test [1] is over 10 µM; in test [2], 200 to 750 nM.

On to `CC(=O)N1CCC[C@]12CC=CCCCC1(CCCC=CCCCOC(=O)N3CC[C@@]4(C3)NC(=O)[C@H](CCCCNC(=O)CC[C@@H](C(=O)N[C@@H](C)C(N)=O)NC(=O)[C@H](Cc3csc5ccccc35)NC(=O)[C@H](Cc3ccsc3)NC4=O)NC(=O)[C@H](Cc3ccccc3)NC(=O)[C@H](C)NC(=O)C(C)(C)NC(=O)[C@H](Cc3cccc(C(=O)O)c3)NC(=O)[C@H](CCC(=O)O)NC1=O)NC(=O)[C@H](CC(C)(C)C)NC(=O)[C@H](CCCC(=O)O)NC2=O` (relative stereo) [I-549, Ac-PL3-Aad-Npg-B5-Glu-3COOHF-Aib-Ala-Phe-Lys*3-PyrS2-3Thi-BztA-GlnR*3-Ala-NH2], for which the IC50 is over 10 µM in test [1] and over 1000 nM in test [2].

Take `CC(=O)N1CCC[C@]12CC=CCCCC1(CCCC=CCCCOC(=O)N3CC[C@@]4(C3)NC(=O)[C@H](CCCCNC(=O)CC[C@@H](C(=O)N[C@@H](C)C(N)=O)NC(=O)[C@H](Cc3csc5ccccc35)NC(=O)[C@H](Cc3ccsc3)NC4=O)NC(=O)[C@H](Cc3ccccc3)NC(=O)[C@H](C)NC(=O)C(C)(C)NC(=O)[C@H](Cc3cccc(C(=O)O)c3)NC(=O)[C@H](CCCC(=O)O)NC1=O)NC(=O)[C@H](CC(C)(C)C)NC(=O)[C@H](CCC(=O)O)NC2=O` (relative stereo) [I-550, Ac-PL3-Glu-Npg-B5-Aad-3COOHF-Aib-Ala-Phe-Lys*3-PyrS2-3Thi-BztA-GlnR*3-Ala-NH2]: the IC50 in test [1] was over 10 µM; in test [2], over 1000 nM.

With `CC(=O)N1CCC[C@]12CC=CCCCC1(CCCC=CCCCOC(=O)N3CC[C@@]4(C3)NC(=O)[C@H](CCCCNC(=O)CC[C@@H](C(=O)N[C@@H](C)C(N)=O)NC(=O)[C@H](Cc3csc5ccccc35)NC(=O)[C@H](Cc3ccsc3)NC4=O)NC(=O)[C@H](Cc3ccccc3)NC(=O)[C@H](C)NC(=O)C(C)(C)NC(=O)[C@H](Cc3cccc(C(=O)O)c3)NC(=O)[C@H](CCCC(=O)O)NC1=O)NC(=O)[C@H](CC(C)(C)C)NC(=O)[C@H](CCCC(=O)O)NC2=O` (relative stereo) [I-551, Ac-PL3-Aad-Npg-B5-Aad-3COOHF-Aib-Ala-Phe-Lys*3-PyrS2-3Thi-BztA-GlnR*3-Ala-NH2], the figures for the IC50 in test [1] and in test [2] were over 10 µM and over 1000 nM, respectively.

`CC(=O)N1CCC[C@]12CC=CCCCC1(CCCC=CCCCOC(=O)N3CC[C@@]4(C3)NC(=O)[C@H](CCCCNC(=O)CC[C@@H](C(=O)N[C@@H](C)C(N)=O)NC(=O)[C@H](Cc3csc5ccccc35)NC(=O)[C@H](Cc3ccsc3)NC4=O)NC(=O)[C@H](Cc3ccccc3)NC(=O)[C@H](C)NC(=O)C(C)(C)NC(=O)[C@H](CCC(=O)O)NC(=O)[C@H](CCC(=O)O)NC1=O)NC(=O)[C@H](CC(C)(C)C)NC(=O)[C@H](CCCC(=O)O)NC2=O` (relative stereo) [I-553, Ac-PL3-Aad-Npg-B5-Glu-Glu-Aib-Ala-Phe-Lys*3-PyrS2-3Thi-BztA-GlnR*3-Ala-NH2]: the results for the IC50 in test [1] and in test [2] were over 10 µM and over 1000 nM, respectively.

Take `CC(=O)N1CCC[C@]12CC=CCCCC1(CCCC=CCCCOC(=O)N3CC[C@@]4(C3)NC(=O)[C@H](CCCCNC(=O)CC[C@@H](C(=O)N[C@@H](C)C(N)=O)NC(=O)[C@H](Cc3csc5ccccc35)NC(=O)[C@H](Cc3ccsc3)NC4=O)NC(=O)[C@H](Cc3ccccc3)NC(=O)[C@H](C)NC(=O)C(C)(C)NC(=O)[C@H](CC(=O)O)NC(=O)[C@H](CCC(=O)O)NC1=O)NC(=O)[C@H](CC(C)(C)C)NC(=O)[C@H](CCC(=O)O)NC2=O` (relative stereo) [I-554, Ac-PL3-Glu-Npg-B5-Glu-Asp-Aib-Ala-Phe-Lys*3-PyrS2-3Thi-BztA-GlnR*3-Ala-NH2]: the IC50 is over 10 µM in test [1] and over 1000 nM in test [2].

Regarding `CC(=O)N1CCC[C@]12CC=CCCCC1(CCCC=CCCCOC(=O)N3CC[C@@]4(C3)NC(=O)[C@H](CCCCNC(=O)CC[C@@H](C(=O)N[C@@H](C)C(N)=O)NC(=O)[C@H](Cc3csc5ccccc35)NC(=O)[C@H](Cc3ccsc3)NC4=O)NC(=O)[C@H](Cc3ccccc3)NC(=O)[C@H](C)NC(=O)C(C)(C)NC(=O)[C@H](CC(=O)O)NC(=O)[C@H](CCC(=O)O)NC1=O)NC(=O)[C@H](CC(C)(C)C)NC(=O)[C@H](CCCC(=O)O)NC2=O` (relative stereo) [I-555, Ac-PL3-Aad-Npg-B5-Glu-Asp-Aib-Ala-Phe-Lys*3-PyrS2-3Thi-BztA-GlnR*3-Ala-NH2], the IC50 in test [1] was over 10 µM; in test [2], over 1000 nM.
